# Measured values as given in ChEMBL document CHEMBL1144420 (J Med Chem, 2005).
# Chains of the proteins cited; added tags and fusions are not shown.
# UniProt P31652, whole entry: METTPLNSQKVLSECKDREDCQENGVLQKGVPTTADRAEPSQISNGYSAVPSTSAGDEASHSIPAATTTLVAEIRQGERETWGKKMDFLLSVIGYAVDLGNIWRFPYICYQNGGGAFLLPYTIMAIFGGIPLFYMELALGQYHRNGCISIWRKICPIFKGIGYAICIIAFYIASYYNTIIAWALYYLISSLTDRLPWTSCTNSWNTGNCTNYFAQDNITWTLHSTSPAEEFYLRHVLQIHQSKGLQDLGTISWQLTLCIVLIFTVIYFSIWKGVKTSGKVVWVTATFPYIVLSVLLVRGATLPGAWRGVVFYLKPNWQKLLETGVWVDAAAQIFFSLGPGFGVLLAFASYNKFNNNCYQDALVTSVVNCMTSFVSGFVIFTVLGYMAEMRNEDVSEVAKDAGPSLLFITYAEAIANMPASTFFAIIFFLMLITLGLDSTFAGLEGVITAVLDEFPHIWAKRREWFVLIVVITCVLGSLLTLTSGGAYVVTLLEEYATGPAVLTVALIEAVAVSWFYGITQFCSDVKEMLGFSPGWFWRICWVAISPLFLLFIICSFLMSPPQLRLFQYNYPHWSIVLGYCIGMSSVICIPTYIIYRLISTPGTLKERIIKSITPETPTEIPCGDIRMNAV
# Biological target: Sodium-dependent serotonin transporter (Rattus norvegicus, UniProt P31652)
# Assay: Displacement of [3H]paroxetine from Serotonin transporter of rat caudate putamen
# Format: tissue-based
compound,measurement,value
COC(=O)[C@H]1[C@@H](OC(=O)c2ccccc2)C[C@@H]2CC[C@H]1N2C [COCAINE],IC50,0.5 nM
